## Yeast mating assay 1: variants of the scFv Ab-14

From the AlphaSeq antibody data of Engelhart et al. 2022 (doi:10.1038/s41597-022-01779-4), copy in the FLAb collection.

Target: peptide PDVDLGDISGINAS, taken from heptad repeat 2 (HR2) of SARS-CoV-2 spike.

Parent: Ab-14, a human scFv built as VH, a 15-residue (Gly4Ser)3 linker, VL. Only the CDRs of the heavy chain vary.
VH: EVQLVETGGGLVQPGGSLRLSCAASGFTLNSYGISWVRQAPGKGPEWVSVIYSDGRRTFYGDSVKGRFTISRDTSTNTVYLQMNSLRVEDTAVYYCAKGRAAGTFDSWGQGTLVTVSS
VL: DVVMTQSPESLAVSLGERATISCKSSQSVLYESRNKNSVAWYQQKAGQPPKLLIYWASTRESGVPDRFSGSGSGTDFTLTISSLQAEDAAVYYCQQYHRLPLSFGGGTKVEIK

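The starting antibody came from a phage panning campaign against this peptide. AAYL49 was designed without a model: most single CDR substitutions and a random sample of double and triple ones. Affinity was read by AlphaSeq, a pooled yeast mating assay with surface-displayed partners. The frequency of each diploid, read from paired DNA barcodes, reflects how well the two displayed proteins bind. Read counts were normalised to the haploid input and turned into Kd by a linear fit to BCL2-family pairs of known affinity, for each replicate. The assay was run in three technical replicates.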

The whole VH of each variant is written out. Values are apparent Kd, the geometric mean of the replicates that gave a signal; lower means stronger binding. "no signal" marks a missing value. The strain was present, yet no cells mated with the target were sequenced in any replicate, which points to weak or no binding. Three control strains display no target. For library AAYL49, 15% of the pairings with them gave a signal, with a median of 11 µM and one signal in twenty below 680 nM, so weak values seen in few replicates may be background.

| Kd | replicates with signal | VH |
|---|---|---|
| no signal | 0 of 3 | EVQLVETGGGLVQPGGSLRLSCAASGFTLISYGISWVRQAPGKGPEWVSVIYSDCRRTFYGDSKKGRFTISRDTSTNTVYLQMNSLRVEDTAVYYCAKGRAAGTFDSWGQGTLVTVSS |
| no signal | 0 of 3 | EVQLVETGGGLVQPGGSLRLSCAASGFTLNSYIIQWVRQAPGKGPEWVSMIYSDGRRTFYGDSVKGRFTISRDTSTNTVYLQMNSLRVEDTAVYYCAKGRAAGTFDSWGQGTLVTVSS |
| no signal | 0 of 3 | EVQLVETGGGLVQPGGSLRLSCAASGFTSNAYGINWVRQAPGKGPEWVSVIYSDGRRTFYGDSVKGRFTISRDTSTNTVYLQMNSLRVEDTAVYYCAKGRAAGTFDSWGQGTLVTVSS |
| no signal | 0 of 3 | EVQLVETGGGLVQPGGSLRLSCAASGFTWNSYGIFWVRQAPGKGPEWVSTIYSDGRRTFYGDSVKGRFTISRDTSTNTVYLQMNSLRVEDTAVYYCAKGRAAGTFDSWGQGTLVTVSS |
| 68 nM | 3 of 3 | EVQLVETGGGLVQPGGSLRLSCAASGFTLNVYGISWVRQAPGKGPEWVSVIYSDGRRTFYGDSVKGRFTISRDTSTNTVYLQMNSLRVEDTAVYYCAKGRAAGTLNSWGQGTLVTVSS |
| 3.6 µM | 1 of 3 | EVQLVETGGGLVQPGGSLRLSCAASGFTLNSYGESWVRQAPGKGPEWVSVIYMDGRRTFYGDSAKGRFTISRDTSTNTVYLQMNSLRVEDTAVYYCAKGRAAGTFDSWGQGTLVTVSS |
| no signal | 0 of 3 | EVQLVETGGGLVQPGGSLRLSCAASGFTLNSYGISWVRQAPGKGPEWVSVIYSDGRRPFYGDVVKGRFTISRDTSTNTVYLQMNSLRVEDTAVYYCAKGRAAGTVDSWGQGTLVTVSS |
| 3.3 µM | 1 of 3 | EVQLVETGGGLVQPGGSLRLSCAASGFTLNSYGISWVRQAPGKGPEWVSVIYSDGRRTFYGDSQKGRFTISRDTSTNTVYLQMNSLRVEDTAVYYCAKVGAAGTFDSWGQGTLVTVSS |
| 84 µM | 2 of 3 | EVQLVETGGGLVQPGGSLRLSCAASGNTLNSYNISWVRQAPGKGPEWVSVIYSDGRRTFYHDSVKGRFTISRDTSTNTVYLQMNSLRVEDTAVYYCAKGRAAGTFDSWGQGTLVTVSS |
| 5.7 µM | 1 of 3 | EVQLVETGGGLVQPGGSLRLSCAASGFTLNSMGISWVRQAPGKGPEWVSVIYSDSRRTFYGDSVKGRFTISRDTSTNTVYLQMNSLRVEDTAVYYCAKGRCAGTFDSWGQGTLVTVSS |
| no signal | 0 of 3 | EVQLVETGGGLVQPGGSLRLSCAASLFTLNSYGISWVRQAPGKGPEWVSVIYSVGRRTFYGDSVKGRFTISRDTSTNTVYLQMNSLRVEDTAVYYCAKGRAAGLFDSWGQGTLVTVSS |
| no signal | 0 of 3 | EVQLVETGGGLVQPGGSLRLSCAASGFTLNSYGFNWVRQAPGKGPEWVSVIYSDGRRTFEGDSVKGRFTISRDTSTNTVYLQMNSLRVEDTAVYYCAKGRAAGTFDSWGQGTLVTVSS |
| no signal | 0 of 3 | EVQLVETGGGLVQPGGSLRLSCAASGFALNSYGISWVRQAPGKGPEWVSVIYSDGRRTFYGDSVKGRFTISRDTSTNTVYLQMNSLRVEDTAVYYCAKQRAACTFDSWGQGTLVTVSS |
| 22 µM | 2 of 3 | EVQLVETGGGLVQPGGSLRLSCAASGFTLNSYGISWVRQAPGKGPEWVSVIYEDGRRTFYGDSVMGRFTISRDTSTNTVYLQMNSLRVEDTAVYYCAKGRAAGSFDSWGQGTLVTVSS |
| 22 µM | 1 of 3 | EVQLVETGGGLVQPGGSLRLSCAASGETLNSYGISWVRQAPGKGPEWVSVQYSDGRRTFYGDSYKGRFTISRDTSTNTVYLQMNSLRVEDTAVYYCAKGRAAGTFDSWGQGTLVTVSS |
| 22 µM | 1 of 3 | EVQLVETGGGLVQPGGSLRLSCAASGFTLNSYGFSWVRQAPGKGPEWVSVIYSDGANTFYGDSVKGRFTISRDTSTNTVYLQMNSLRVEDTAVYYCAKGRAAGTFDSWGQGTLVTVSS |
| 98 µM | 1 of 3 | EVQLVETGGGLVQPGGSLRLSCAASGFTLNSYGISWVRQAPGKGPEWVSVIYSDGRRTFEGCSVKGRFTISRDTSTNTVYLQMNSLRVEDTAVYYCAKGRAAGTFDSWGQGTLVTVSS |
| no signal | 0 of 3 | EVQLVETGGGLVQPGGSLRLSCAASGFTLNSYGISWVRQAPGKGPEWVSVITSDGRYTFYGDSVCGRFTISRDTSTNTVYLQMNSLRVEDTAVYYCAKGRAAGTFDSWGQGTLVTVSS |
| 55 µM | 2 of 3 | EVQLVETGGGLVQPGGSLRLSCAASGFTLNSYKISWVRQAPGKGPEWVSVTYSDGNRTFYGDSVKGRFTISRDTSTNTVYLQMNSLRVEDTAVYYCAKGRAAGTFDSWGQGTLVTVSS |
| no signal | 0 of 3 | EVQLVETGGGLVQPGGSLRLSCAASGFTTNSYGISWVRQAPGKGPEWVSVIYSDGFRTFYGDSVKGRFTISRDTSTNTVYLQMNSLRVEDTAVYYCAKGRAANTFDSWGQGTLVTVSS |
| 16 µM | 3 of 3 | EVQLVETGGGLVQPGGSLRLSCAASGFTLNSYGISWVRQAPGKGPEWVSVIYSDGRRTFHGPCVKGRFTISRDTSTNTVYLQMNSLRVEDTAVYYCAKGRAAGTFDSWGQGTLVTVSS |
| no signal | 0 of 3 | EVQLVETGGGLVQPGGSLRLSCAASGFTLNSYGWSWVRQAPGKGPEWVSVIYSDGRRTFYGDDVAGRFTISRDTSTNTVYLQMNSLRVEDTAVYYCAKGRAAGTFDSWGQGTLVTVSS |
| 22 µM | 2 of 3 | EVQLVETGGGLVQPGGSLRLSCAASWFRLNSYGISWVRQAPGKGPEWVSVIYSCGRRTFYGDSVKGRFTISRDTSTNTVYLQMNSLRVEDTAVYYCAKGRAAGTFDSWGQGTLVTVSS |
| 8.7 µM | 1 of 3 | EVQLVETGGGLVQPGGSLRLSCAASGFTLNSYGIKWVRQAPGKGPEWVSWIYSDGRRTFYGDSVKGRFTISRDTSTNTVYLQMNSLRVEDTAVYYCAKRRAAGTFDSWGQGTLVTVSS |
| no signal | 0 of 3 | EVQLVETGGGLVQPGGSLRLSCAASGFTLNSYGISWVRQAPGKGPEWVSSIYSDGRRTFCGISVKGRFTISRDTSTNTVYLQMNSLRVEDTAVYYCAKGRAAGTFDSWGQGTLVTVSS |